Antibody variant affinities, Ab-14 heavy chain, assay B

From the AlphaSeq antibody data of Li et al. 2023 (doi:10.1038/s41467-023-39022-2), copy in the FLAb collection.

Binding partner: SARS-CoV-2 spike HR2 peptide, sequence PDVDLGDISGINAS.

Each scFv is VH, a (GGGGS)3 linker, VL, as in the parent Ab-14, and differs from it in the CDRs of the heavy chain only.
VH: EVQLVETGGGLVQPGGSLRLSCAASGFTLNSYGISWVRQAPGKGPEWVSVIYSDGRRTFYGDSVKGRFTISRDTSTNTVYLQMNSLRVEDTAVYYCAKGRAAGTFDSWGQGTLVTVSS
VL: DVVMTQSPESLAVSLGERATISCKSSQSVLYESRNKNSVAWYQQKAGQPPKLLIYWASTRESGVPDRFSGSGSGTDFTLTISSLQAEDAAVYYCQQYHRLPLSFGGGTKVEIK

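Designed CDR sequences, proposed from the first random library and measured here. Their group label is 14H_En_Gibbs (En: ensemble of fine-tuned language models; Gibbs: Gibbs sampling). The assay is AlphaSeq: two haploid yeast populations carry antibody and antigen on their surface. The frequency of each diploid, read from paired DNA barcodes, reflects how well the two displayed proteins bind. A regression on co-assayed BCL2-family reference pairs converts the normalised counts of each replicate to an apparent Kd. Mating was done six times.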

The parent's heavy chain CDRs are GFTLNSYGIS, VIYSDGRRTFYGDSVK, GRAAGTFDS; each variant's own CDRs replace them letter for letter.
The read-out is the apparent dissociation constant on a log10 scale (nM): the lower, the stronger.
The mean shown is taken over the replicates in which the pair was detected.
"ND" means that the variant was in the library but no mating with the target was seen in that replicate; the authors take this as a sign of poor binding, and no number exists.
The parent sequence was in this pool as ten entries: three were never detected, three once, and four in most replicates, with averages from 0.34 to 2.37.
As a blank, each scFv also met three strains without target: over all heavy chain designs, 1% of these pairings were detected, typically at 2.08 and seldom below 0.84. The control count says in how many pairings with the empty strains this scFv gave a signal.
The authors averaged sequences with at least three values out of six and counted those with two or fewer as poor binders.
The range of this assay differs from that of the first round, and the authors advise against merging the two.

For GQDLNEYGIS, VIYADGVRTAYAISVK, GYHGSQFDI, the assay gave ND, ND, ND, ND, ND, ND (controls 0 of 18).
For GFDLEEYGVS, VIYADGIRFAYAQDFK, GEAAGAFDL, the assay gave 1.42, 1.19, 0.82, 1.02, 1.31, 1.10 (mean 1.15; controls 0 of 18).
For GFDIEEYGIS, VIYADGIRQAYKDSVK, GGNVGRFSV, the assay gave ND, ND, ND, ND, ND, ND (controls 2 of 18).
For GFNLDEYGIS, VIYADGMRSMYADSVK, GGISGWFFI, the assay gave ND, ND, ND, ND, ND, ND (controls 0 of 18).
For GKDINEYGVS, VIYADGKRNAYQNSVK, GKNAGAFVD, the assay gave ND, ND, ND, ND, ND, ND (controls 0 of 18).
For GFDIMEYGVS, VIYADGVRTAYSQDVK, GNNLDSYTD, the assay gave ND, ND, ND, ND, ND, ND (controls 0 of 18).
For GEDLNEYGIS, VIYADGQRTYYDNSVK, GKFAGSFFH, the assay gave ND, ND, ND, ND, ND, ND (controls 0 of 18).
For GFDLNEYGVS, VIYADGQRRAYAANFK, GVNIGGFDA, the assay gave 0.48, 1.05, -0.03, 0.89, 0.64, 0.72 (mean 0.63; controls 0 of 18).
For GQGLDEYGIS, VIYADGVRTYYTPNVK, GQVLGVINI, the assay gave ND, ND, ND, ND, ND, ND (controls 0 of 18).
For GKSLNEMGIS, VIYADGHRKMYANDVK, GHVGAIFMM, the assay gave ND, ND, ND, ND, ND, ND (controls 0 of 18).
For GNDLNEYGIS, VIYADGMRMAYLNDVK, GQKGGLFFM, the assay gave ND, ND, ND, ND, ND, ND (controls 0 of 18).
For GFSLDEYGIS, VIYADGIRVSYTDQVK, GQTPSLNII, the assay gave ND, ND, ND, ND, ND, ND (controls 0 of 18).
For GFDLNEYGIS, VIYADGSRSYYADNVK, GVMNIMMEV, the assay gave ND, ND, 1.58, ND, ND, ND (controls 0 of 18).
For GFQLNEYGIS, VIYADGKRSEYADKVK, GGINSSFLV, the assay gave ND, ND, ND, ND, ND, ND (controls 0 of 18).
For GFSLDEYGIS, VIYADGIRQHYSDKVK, GVVFGNVMF, the assay gave ND, ND, ND, ND, ND, ND (controls 0 of 18).
For GFKIDEYGIS, VIYADGMRAHYSDAVK, GVKGFNVVM, the assay gave ND, ND, ND, ND, ND, ND (controls 0 of 18).
For GFDIEEFGIS, VIYADGIRAAYAQKVK, GTIAGTFVD, the assay gave 1.32, 0.91, 0.00, 0.46, 1.29, 0.60 (mean 0.76; controls 0 of 18).
For DFNLNEYGIS, VIYADGVRASYRNDVK, GQISGDFDL, the assay gave ND, ND, ND, ND, ND, ND (controls 1 of 18).
For GFDLGEYGVS, VIYADGRRAQYASKVK, GNFSGNFDK, the assay gave ND, ND, ND, ND, ND, ND (controls 0 of 18).
For GFNLEEYGIS, VIYADGKRTKYSENVK, GHIGNVRVV, the assay gave ND, ND, ND, ND, ND, ND (controls 0 of 18).
For GFDLNEYGIS, VIYADGLRKSYADSVK, NGLRSFFFV, the assay gave ND, ND, ND, ND, ND, ND (controls 2 of 18).
For GPNLEEYGIS, VIYADGIRTAYKDSVK, GDVAGYFVF, the assay gave ND, ND, 2.67, ND, ND, ND (controls 0 of 18).
For GFNLDEYGIS, VIYADGVRTQYAQSFK, GMSFGYIAG, the assay gave ND, ND, ND, ND, ND, ND (controls 0 of 18).
For GEDLNEYGIS, VIYADGRRTYYDNSVK, GKFAGSFFH, the assay gave ND, ND, ND, ND, ND, ND (controls 0 of 18).
For GFDLDEYGIS, VIYADGVRMAYTDSVK, GNWSGRDMY, the assay gave ND, ND, ND, ND, ND, ND (controls 0 of 18).
For GNDLNEYGIS, VIYADGSRTSYQEKVK, GLVGGMLAV, the assay gave ND, ND, ND, ND, ND, ND (controls 0 of 18).
For GFQLDEYGIS, VIYADGQRTAYSKNVK, GYIDFKRIG, the assay gave ND, ND, ND, ND, ND, ND (controls 0 of 18).
For GVNLDEYGIS, VIYADGKRSHYTDKVK, GTFGDFMMV, the assay gave ND, ND, ND, ND, ND, ND (controls 1 of 18).
For GQSLEEYGIS, VIYADGFRTQYKDSVK, GKNVFDIIV, the assay gave ND, ND, ND, ND, ND, ND (controls 0 of 18).
For GFNLDEYGIS, VIYADGVRKAYSSKVK, GVVHWFNLQ, the assay gave ND, ND, ND, ND, ND, ND (controls 0 of 18).
For GFDLEEMGIS, VIYADGARKVYTNSVK, GGFGGQMNV, the assay gave 1.49, 0.32, 1.80, ND, 0.31, 1.07 (mean 1.00; controls 0 of 18).
For GFDLTEYGIS, VIYADGRRTEYVDDVK, GQTAGHFLD, the assay gave ND, ND, ND, ND, ND, ND (controls 0 of 18).
For GFDINEYGIS, VIYADGMRKAVEQNVK, GENSRSVVI, the assay gave ND, ND, ND, ND, ND, ND (controls 0 of 18).
For GFDINEYGIS, VIYADGNRIAYQDQVK, GFNAGSFVI, the assay gave ND, ND, ND, ND, ND, ND (controls 0 of 18).
For GFQLDEYGIS, VIYADGERTMYSNDVK, GTEGGTFQQ, the assay gave ND, ND, ND, ND, ND, ND (controls 0 of 18).
For GFNLDEYGIS, VIYADGKRTAYADSVK, NSVMSGRVT, the assay gave ND, ND, ND, ND, ND, ND (controls 0 of 18).
For GFDIEEMGIS, VIYADGIRQAYKNDVK, GTNVGRFAV, the assay gave ND, ND, ND, ND, ND, ND (controls 0 of 18).
For GFWLDEYGIS, VIYADGKRVAYINSVK, GQFTYNNDV, the assay gave ND, ND, ND, ND, ND, ND (controls 0 of 18).
For GEDIDEYGIS, VIYADGRRTAYSQSVK, GQNGGQIDV, the assay gave ND, ND, ND, ND, ND, ND (controls 0 of 18).
For GKGLDEYGVS, VIYADGVRQSYADDVK, GGIAGTFLY, the assay gave 2.43, 0.82, 1.26, 0.51, 0.73, 0.95 (mean 1.12; controls 0 of 18).
For GFSIDEYGIS, VIYADGLRQFYTNAVK, GMAAGTFDQ, the assay gave -0.24, -0.27, -0.29, -0.64, -0.34, -0.34 (mean -0.36; controls 0 of 18).
For GFDLAEYGIS, VIYADGMRVAYNQNVK, GTGGGSFDF, the assay gave ND, ND, ND, ND, ND, ND (controls 1 of 18).
For GDDLEDYGIS, VIYADGRRTAYQESVK, GLYAGMLDV, the assay gave ND, ND, ND, ND, ND, ND (controls 0 of 18).
For GFNFDEYGIS, VIYADGMRRAYVDDVK, GSHSDVFNM, the assay gave ND, ND, ND, ND, ND, ND (controls 0 of 18).
For GFNIDEFGIS, VIYADGKRSSYSDSVK, GQLGNAFDL, the assay gave ND, ND, ND, ND, ND, ND (controls 0 of 18).
For GFSLNEYGIS, VIYADGMRNFYADSVK, GLHSGFFDI, the assay gave ND, ND, ND, ND, ND, ND (controls 0 of 18).
For GNTLNEYGIS, VIYADGIRKAYSDNVK, GMNGDTFTQ, the assay gave ND, ND, ND, ND, ND, ND (controls 0 of 18).
For GFNLEEYGIS, VIYADGMRSEYSDNVK, GHKGNWFQD, the assay gave ND, ND, ND, ND, ND, ND (controls 0 of 18).
For GPSLQEYGIS, VIYADGMRTAYTDSVK, GLFGATFVD, the assay gave -0.30, -0.54, -0.69, -1.09, -1.00, -0.83 (mean -0.74; controls 0 of 18).
For GFNLNDYGIS, VIYADGHRRYYVDNVK, GHLAGTFFM, the assay gave ND, ND, ND, ND, ND, ND (controls 0 of 18).

The last 6 entries again:

{"CDR-H1": "GFNIDEFGIS", "CDR-H2": "VIYADGKRSSYSDSVK", "CDR-H3": "GQLGNAFDL", "log10 Kd (nM) by replicate": "ND, ND, ND, ND, ND, ND", "mean, log10 nM": "ND", "signal with controls": "0/18"}
{"CDR-H1": "GFSLNEYGIS", "CDR-H2": "VIYADGMRNFYADSVK", "CDR-H3": "GLHSGFFDI", "log10 Kd (nM) by replicate": "ND, ND, ND, ND, ND, ND", "mean, log10 nM": "ND", "signal with controls": "0/18"}
{"CDR-H1": "GNTLNEYGIS", "CDR-H2": "VIYADGIRKAYSDNVK", "CDR-H3": "GMNGDTFTQ", "log10 Kd (nM) by replicate": "ND, ND, ND, ND, ND, ND", "mean, log10 nM": "ND", "signal with controls": "0/18"}
{"CDR-H1": "GFNLEEYGIS", "CDR-H2": "VIYADGMRSEYSDNVK", "CDR-H3": "GHKGNWFQD", "log10 Kd (nM) by replicate": "ND, ND, ND, ND, ND, ND", "mean, log10 nM": "ND", "signal with controls": "0/18"}
{"CDR-H1": "GPSLQEYGIS", "CDR-H2": "VIYADGMRTAYTDSVK", "CDR-H3": "GLFGATFVD", "log10 Kd (nM) by replicate": "-0.30, -0.54, -0.69, -1.09, -1.00, -0.83", "mean, log10 nM": "-0.74", "signal with controls": "0/18"}
{"CDR-H1": "GFNLNDYGIS", "CDR-H2": "VIYADGHRRYYVDNVK", "CDR-H3": "GHLAGTFFM", "log10 Kd (nM) by replicate": "ND, ND, ND, ND, ND, ND", "mean, log10 nM": "ND", "signal with controls": "0/18"}